Molecular target: GLFG_(52×12)
Test: partitioning into the condensed FG phase (confocal laser scanning microscopy); FG particles of unlabelled FG domain in assay buffer (50 mM Tris/HCl, 5 mM DTT, 150 mM NaCl) mixed with fluorescent probe: 6 μM mCherry, 3 μM EGFP, 1 μM NTR or 1.5 μM NTR pre-incubated with 1 μM cargo; partition coefficient = signal in the centre of the particle / buffer; 21 °C

partition coefficient: > 200
Substance: NTF2·RanGDP complex (Ran labelled with Atto488) (from UniProt P61970 1-127; P62826 1-216)
